## Membrane permeability of cyclic peptides

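Conditions beyond the assay type are not listed; see the original paper. Other peptides of the study may be missing here. Entries at the database's floor value (log10 P of -10) are not listed.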

PAMPA measures passive passage through an artificial lipid membrane. P is given in units of 10^-6 cm/s (from log10 values with two decimals); larger means faster passage.

{"smiles": "CC(C)C[C@@H]1NC(=O)[C@@H](C)N(C)C(=O)[C@H](Cc2ccccc2)NC(=O)[C@H](CC(C)C)NC(=O)[C@@H]2CCCN2C(=O)[C@@H](CC(C)C)NC1=O", "PAMPA (10^-6 cm/s)": "8.3"}
{"smiles": "CC(C)C[C@@H]1C(=O)N2CCC[C@@H]2C(=O)N[C@H](CC(C)C)C(=O)N[C@@H](Cc2ccccc2)C(=O)N(C)[C@@H](C)C(=O)N[C@H](CC(C)C)C(=O)N1C", "PAMPA (10^-6 cm/s)": "10"}
{"smiles": "CC(C)C[C@H]1NC(=O)[C@H](C)NC(=O)[C@H](Cc2ccccc2)NC(=O)[C@H](CC(C)C)N(C)C(=O)[C@H]2CCCN2C(=O)C[C@H](Cc2ccccc2)NC1=O", "PAMPA (10^-6 cm/s)": "1.9"}
{"smiles": "CC(C)C[C@@H]1NC(=O)[C@@H]2CCCN2C(=O)[C@H](CC(C)C)NC(=O)[C@@H](CC(C)C)NC(=O)[C@H](C)NC(=O)[C@H](Cc2ccccc2)NC1=O", "PAMPA (10^-6 cm/s)": "0.32"}
{"smiles": "CCCN1CC(=O)N(C)[C@H](CC(C)C)C(=O)N(C)[C@@H](CC(C)C)C(=O)N2CCC[C@H]2C(=O)N(C)[C@@H](CC(C)C)C(=O)N[C@@H](Cc2ccccc2)C1=O", "PAMPA (10^-6 cm/s)": "19"}
{"smiles": "CC(C)C[C@@H]1NC(=O)[C@H](C)N(C)C(=O)[C@@H]2CCCN2C(=O)[C@H](Cc2ccccc2)NC(=O)[C@@H](CC(C)C)NC(=O)[C@H]2CCCN2C(=O)CN(Cc2ccccc2)C1=O", "PAMPA (10^-6 cm/s)": "1.7"}
{"smiles": "CC(C)C[C@@H]1C(=O)N[C@@H](Cc2ccccc2)C(=O)N2CCC[C@H]2C(=O)N[C@@H](Cc2ccccc2)CC(=O)N[C@H](CC(C)C)C(=O)N[C@@H](Cc2ccccc2)CC(=O)N2CCC[C@H]2C(=O)N1C", "PAMPA (10^-6 cm/s)": "0.3"}
{"smiles": "CC(C)C[C@@H]1C(=O)N[C@@H](Cc2ccccc2)C(=O)N2CCC[C@@H]2C(=O)N(C)[C@@H](C)C(=O)N(C)[C@H](CC(C)C)C(=O)N(Cc2ccccc2)CC(=O)N2CCC[C@@H]2C(=O)N1C", "PAMPA (10^-6 cm/s)": "4"}
{"smiles": "CC(C)C[C@@H]1C(=O)N[C@@H](Cc2ccccc2)C(=O)N2CCC[C@H]2C(=O)N(C)[C@H](C)C(=O)N(C)[C@@H](CC(C)C)C(=O)N(C)[C@@H](CC(C)C)C(=O)N2CCC[C@@H]2C(=O)N1C", "PAMPA (10^-6 cm/s)": "2.3"}
{"smiles": "CC(C)C[C@@H]1NC(=O)[C@H](CC(C)C)N(C)C(=O)[C@@H](C)N(C)C(=O)[C@H](Cc2ccccc2)NC(=O)CN(Cc2ccccc2)C(=O)[C@H]2CCCN2C1=O", "PAMPA (10^-6 cm/s)": "6"}
{"smiles": "CC(C)C[C@H]1C(=O)N2CCC[C@H]2C(=O)N(C)[C@@H](CC(C)C)C(=O)N[C@@H](Cc2ccccc2)C(=O)N[C@@H](C)C(=O)N(Cc2ccccc2)CC(=O)N1C", "PAMPA (10^-6 cm/s)": "6"}
{"smiles": "CC(C)C[C@@H]1NC(=O)C[C@H](Cc2ccccc2)NC(=O)[C@H](Cc2ccccc2)NC(=O)[C@@H](CC(C)C)N(C)C(=O)[C@@H]2CCCN2C(=O)[C@@H](CC(C)C)NC1=O", "PAMPA (10^-6 cm/s)": "11"}
{"smiles": "CC(C)C[C@@H]1NC(=O)[C@@H](CC(C)C)N(C)C(=O)C[C@H](Cc2ccccc2)NC(=O)[C@H]2CCCN2C(=O)[C@H](Cc2ccccc2)NC(=O)[C@@H](CC(C)C)NC(=O)[C@@H]2CCCN2C1=O", "PAMPA (10^-6 cm/s)": "4.4"}
{"smiles": "CCCN1CC(=O)N(Cc2ccccc2)CC(=O)N(C)[C@H](CC(C)C)C(=O)N2CCC[C@H]2C(=O)N[C@H](CC(C)C)C(=O)N[C@@H](Cc2ccccc2)C(=O)N2CCC[C@@H]2C1=O", "PAMPA (10^-6 cm/s)": "2.5"}
{"smiles": "CC(C)C[C@@H]1C(=O)N2CCC[C@@H]2C(=O)N[C@H](CC(C)C)C(=O)N[C@@H](Cc2ccccc2)C(=O)N2CCC[C@@H]2C(=O)N[C@H](C)C(=O)N(C)[C@@H](CC(C)C)C(=O)N1C", "PAMPA (10^-6 cm/s)": "1"}
{"smiles": "CCCN1CC(=O)N[C@@H](CC(C)C)C(=O)N(C)[C@@H](CC(C)C)C(=O)N2CCC[C@@H]2C(=O)N[C@@H](CC(C)C)C(=O)N[C@@H](Cc2ccccc2)C(=O)N2CCC[C@H]2C1=O", "PAMPA (10^-6 cm/s)": "1.5"}
{"smiles": "CC(C)C[C@@H]1C(=O)N(C)[C@H](CC(C)C)C(=O)N2CCC[C@H]2C(=O)N(C)[C@@H](CC(C)C)C(=O)N[C@@H](Cc2ccccc2)C(=O)N2CCC[C@H]2C(=O)N(C)[C@H](C)C(=O)N1C", "PAMPA (10^-6 cm/s)": "10"}
{"smiles": "CC(C)C[C@@H]1C(=O)N2CCC[C@H]2C(=O)N(C)[C@H](CC(C)C)C(=O)N[C@@H](Cc2ccccc2)C(=O)N2CCC[C@@H]2C(=O)N[C@H](C)C(=O)N(C)[C@@H](CC(C)C)C(=O)N1C", "PAMPA (10^-6 cm/s)": "7.2"}
{"smiles": "CC(C)C[C@@H]1NC(=O)[C@@H](C)N(C)C(=O)[C@H]2CCCN2C(=O)[C@H](Cc2ccccc2)NC(=O)[C@@H](CC(C)C)N(C)C(=O)[C@@H]2CCCN2C(=O)C[C@H](Cc2ccccc2)NC1=O", "PAMPA (10^-6 cm/s)": "5"}
{"smiles": "CC(C)C[C@@H]1C(=O)N2CCC[C@H]2C(=O)N(C)[C@H](CC(C)C)C(=O)N[C@@H](Cc2ccccc2)C(=O)N2CCC[C@@H]2C(=O)N(C)[C@@H](C)C(=O)N[C@H](CC(C)C)C(=O)N1C", "PAMPA (10^-6 cm/s)": "8.7"}
{"smiles": "CC(C)C[C@@H]1C(=O)N[C@@H](Cc2ccccc2)C(=O)N2CCC[C@H]2C(=O)N(C)[C@H](C)C(=O)N(C)[C@@H](CC(C)C)C(=O)N(Cc2ccccc2)CC(=O)N2CCC[C@@H]2C(=O)N1C", "PAMPA (10^-6 cm/s)": "6"}
{"smiles": "CCCN1CC(=O)N[C@@H](CC(C)C)C(=O)N[C@@H](CC(C)C)C(=O)N2CCC[C@@H]2C(=O)N(C)[C@H](CC(C)C)C(=O)N[C@@H](Cc2ccccc2)C(=O)N2CCC[C@@H]2C1=O", "PAMPA (10^-6 cm/s)": "6.6"}
{"smiles": "CC(C)C[C@@H]1C(=O)N(C)[C@@H](CC(C)C)C(=O)N2CCC[C@H]2C(=O)N(C)[C@H](CC(C)C)C(=O)N[C@@H](Cc2ccccc2)C(=O)N2CCC[C@@H]2C(=O)N(C)[C@@H](C)C(=O)N1C", "PAMPA (10^-6 cm/s)": "11"}

The 2 highest values of PAMPA among the entries above:

{"smiles": "CCCN1CC(=O)N(C)[C@H](CC(C)C)C(=O)N(C)[C@@H](CC(C)C)C(=O)N2CCC[C@H]2C(=O)N(C)[C@@H](CC(C)C)C(=O)N[C@@H](Cc2ccccc2)C1=O", "PAMPA (10^-6 cm/s)": "19"}
{"smiles": "CC(C)C[C@@H]1C(=O)N(C)[C@@H](CC(C)C)C(=O)N2CCC[C@H]2C(=O)N(C)[C@H](CC(C)C)C(=O)N[C@@H](Cc2ccccc2)C(=O)N2CCC[C@@H]2C(=O)N(C)[C@@H](C)C(=O)N1C", "PAMPA (10^-6 cm/s)": "11"}

Collected by the curators of CycPeptMPDB (Li et al. 2023) from Townsend et al. 2020, doi:10.26434/chemrxiv.13335941.v1.